Results reported in paper PMC8699473, “An Easily Expandable Multi-Drug LC-MS Assay for the Simultaneous Quantification of 57 Oral Antitumor Drugs in Human Plasma” (Cancers, 2021).

What was measured:
[1] = Short-term stability in spiked pooled human plasma (bench-top, 4 °C, 56 °C)
[2] = Autosampler stability of ready for injection samples; assay type: physicochemical, human
[3] = Long-term stability in spiked pooled human plasma; conditions: validation standard 2xLLOV

In the case of `COc1cc2nccc(Oc3ccc(NC(=O)C4(C(=O)Nc5ccc(F)cc5)CC4)cc3)c2cc1OC` [Cabozantinib], the “Short-time stability (24h, RT, without daylight) Accuracy [%]” value ([1]; validation standard LLOV) is reported as 90.7%, the “Short-time stability (24h, RT, without daylight) Accuracy [%]” value ([1]; validation standard MOV) is reported as 108.0% and the “Short-time stability (24h, RT, with daylight) Accuracy [%]” value ([1]; validation standard ULOV) is reported as 100.6%. The “Short-time stability (24h, RT, without daylight) Accuracy [%]” value ([1]; validation standard ULOV) was 99.9%, the “Autosampler (24h, 4°C) Accuracy [%]” value ([2]; validation standard 2xLLOV) was 100.8% and the “Autosampler (72h, 4°C) Accuracy [%]” value ([2]; validation standard ULOV) was 101.3%. The “Long-term stability, 2 month, -20°C Accuracy [%]” value [3] was 100.6%.
